The values below are quoted from earlier work in patent US7534424B2, “Method of enhancing delivery of a therapeutic nucleic acid” (Biogen Idec MA Inc., priority 2001, dated 2009).

The conditions of the series: literature (Joklik 1991).

“human IFN-β: human interferon-beta, the transgene product”: the “cross-species activity in mice” value is “does not have detectable cross-species activity”.
